Earlier results on one compound are cited in article PMC11274801, “A Novel PDE10A Inhibitor for Tourette Syndrome and Other Movement Disorders” (Cells, 2024).

The test system of one data set is D2 receptor. Conditions: 10 mg daily dose ref 53; cited from earlier work.
Details of data set [1]: method as in PMID 24021518. The settings on record: over 10 weeks ref 55; cited from earlier work.

As for `O=C1CCc2ccc(OCCCCN3CCN(c4cccc(Cl)c4Cl)CC3)cc2N1` [aripiprazole], in the data set with D2 receptor, the D2 occupancy was ~ 85%. The “body weight, body mass index, waist circumference” value in data set [1] is “increased mean body weight, body mass index, and waist circumference significantly vs. placebo”.
